In article PMC9770395 (PLOS Neglected Tropical Diseases, 2022):
“And” between values parts separate entries of the source, which are not always exact repeats. Equal values may be shown once. Read-outs that look alike come from different tables or passages of the source.

By UniProt entry, the sequences of proteins in these tests, tags left out.
UniProt P13569, whole entry: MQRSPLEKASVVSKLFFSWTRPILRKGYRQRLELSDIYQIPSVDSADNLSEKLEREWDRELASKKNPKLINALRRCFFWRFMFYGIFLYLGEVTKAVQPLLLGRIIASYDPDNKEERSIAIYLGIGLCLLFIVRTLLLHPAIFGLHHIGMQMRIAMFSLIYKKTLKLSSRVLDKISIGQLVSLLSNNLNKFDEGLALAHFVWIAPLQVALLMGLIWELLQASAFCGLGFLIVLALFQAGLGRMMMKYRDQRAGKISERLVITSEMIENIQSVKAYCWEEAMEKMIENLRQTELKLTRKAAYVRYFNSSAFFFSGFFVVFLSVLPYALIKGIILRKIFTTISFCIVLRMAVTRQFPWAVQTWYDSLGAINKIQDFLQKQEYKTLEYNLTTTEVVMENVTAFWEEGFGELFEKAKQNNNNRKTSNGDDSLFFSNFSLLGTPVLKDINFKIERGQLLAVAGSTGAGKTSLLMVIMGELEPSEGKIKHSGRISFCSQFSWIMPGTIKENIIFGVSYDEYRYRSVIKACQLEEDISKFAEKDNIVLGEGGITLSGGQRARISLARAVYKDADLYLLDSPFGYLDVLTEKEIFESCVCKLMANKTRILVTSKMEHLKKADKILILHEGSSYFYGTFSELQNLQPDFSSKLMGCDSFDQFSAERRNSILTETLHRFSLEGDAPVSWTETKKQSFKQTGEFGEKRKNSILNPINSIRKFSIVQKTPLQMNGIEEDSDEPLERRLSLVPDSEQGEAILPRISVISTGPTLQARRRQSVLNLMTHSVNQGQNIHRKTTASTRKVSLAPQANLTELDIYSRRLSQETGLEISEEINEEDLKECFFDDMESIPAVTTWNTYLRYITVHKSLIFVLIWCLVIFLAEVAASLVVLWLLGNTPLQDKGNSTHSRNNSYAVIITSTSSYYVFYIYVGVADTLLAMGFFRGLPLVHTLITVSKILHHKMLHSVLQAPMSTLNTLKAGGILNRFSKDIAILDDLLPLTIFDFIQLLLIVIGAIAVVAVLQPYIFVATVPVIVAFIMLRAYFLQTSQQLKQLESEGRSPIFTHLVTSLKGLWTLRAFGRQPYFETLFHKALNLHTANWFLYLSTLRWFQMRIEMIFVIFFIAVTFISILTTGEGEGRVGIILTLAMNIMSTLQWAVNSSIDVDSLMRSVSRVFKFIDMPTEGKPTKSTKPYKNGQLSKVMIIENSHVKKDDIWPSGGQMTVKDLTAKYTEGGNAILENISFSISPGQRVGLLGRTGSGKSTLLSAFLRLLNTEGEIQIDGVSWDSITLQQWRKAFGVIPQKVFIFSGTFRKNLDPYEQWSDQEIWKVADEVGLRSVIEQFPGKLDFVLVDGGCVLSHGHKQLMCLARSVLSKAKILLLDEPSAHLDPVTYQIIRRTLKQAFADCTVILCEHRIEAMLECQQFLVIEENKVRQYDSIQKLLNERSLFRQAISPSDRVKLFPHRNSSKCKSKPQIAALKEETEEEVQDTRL

Experiments:
[1] = system: Na^+/K^+ ATPase; experiment: Ouabain-sensitive ISC in apically permeabilized T84 cells; format: cell-based, human; details: 20 μM
[2] = biological target: CFTR (Homo sapiens, UniProt P13569)
[3] = system: CT-induced intestinal fluid secretion; format: in vivo, mouse; details: 6 h

For `CC[C@H](C)C(=O)O[C@H]1C[C@@H](C)C=C2C=C[C@H](C)[C@H](CC[C@@H]3CC=CC(=O)O3)[C@H]21` [DHLV, α,β-dehydrolovastatin], the “Effect on ouabain-sensitive ISC (Na^+/K^+ ATPase activity)” value [1] was “did not affect”, the IC50 ([2]; IC50, CFTR-mediated apical ICl^- induced by CPT-cAMP, CPT-cAMP (100 μM)) was 5.5 ± 0.21 µM and the IC50 ([2]; IC50, CFTR-mediated apical ICl^- induced by forskolin, forskolin (20 μM) as CFTR stimulator) was 2.1 ± 0.25 µM. It also gave an IC50 ([2]; IC50, forskolin-induced CFTR apical ICl^- after Na3VO4 and NaF pretreatment, NaF plus Na3VO4 (1 mM, PP inhibitors), 15 min) of 2.71 ± 0.26 µM, an IC50 ([2]; IC50, forskolin-induced CFTR apical ICl^- after compound C pretreatment, compound C (50 μM, AMPK inhibitor), 15 min) of 4.45 ± 0.44 µM and an IC50 ([2]; IC50, forskolin-induced CFTR-mediated apical ICl^- in the presence of MK571, pre-treatment with MK571 (20 μM, MRP4 inhibitor)) of 1.66 ± 0.32 µM. For the same molecule, the “Reduction of CT-induced fluid secretion (loop weight/length ratio), intraluminal” value [3] was 65% and ~64.64% and the “Reduction of CT-induced fluid secretion (loop weight/length ratio), intraperitoneal” value [3] was 59% and ~59.30%.
